Test results reported in patent US20240052028A1, “ENHANCEMENT OF ANTI-TUMOR PHAGOCYTOSIS” (The Board of Trustees of the Leland Stanford Junior …, priority 2020, published 2024).

Assays:
NCI-H23 cells = test: Phagocytosis assay, uptake of NCI-H23 cells by J774 macrophages with anti-EGFR/cetuximab; assay type: cell-based, mouse; details: cells without APMAP deficiency, J774 macrophages (FIG. 3B)
Experimental: (§1) Time-lapse microscopy assay for phagocytosis J774 cells were lifted by scraping, counted, and plated in 24 well tissue culture plates at a density of 100,000 cells per well in 0.5 ml media 48 h prior to the start of the experiment. At 24 h after plating, media was aspirated and replaced with fresh media containing 10 ng ml^−1 lipopolysaccharide (LPS) (Sigma). On the day of the experiment, target cells that had been transduced with sgRNAs, co-expressed with GFP and PuroR, and selected with puromycin as described above, were lifted, pelleted, and counted. […] Total red intensity for each well, averaged over 16 images per well, was calculated after applying a threshold for red intensity that excluded most or all cells at the first time point using top-hat background subtraction. Reported values represent the mean total red fluorescence intensity at each timepoint, minus the total red fluorescence at the initial timepoint (to remove signal from occasional autofluorescent debris), normalized to the initial total green fluorescence signal (to account for small variations in target cell density), of duplicate, triplicate, or quadruplicate wells, as indicated in the legend. […]

OVCAR8 cells = test: Phagocytosis assay, uptake of OVCAR8 cells by J774 macrophages with anti-EGFR/cetuximab; assay type: cell-based, mouse; details: cells without APMAP deficiency, J774 macrophages (FIG. 3B)
Experimental: as §1

cetuximab
phagocytosis of NCI-H23 cells in the presence of cetuximab (NCI-H23 cells): not otherwise detectably phagocytosed | phagocytosis of OVCAR8 cells in the presence of cetuximab (OVCAR8 cells): not otherwise detectably phagocytosed
